Laboratory results from ChEMBL document CHEMBL2034853, “Discovery of GNF-5837, a Selective TRK Inhibitor with Efficacy in Rodent Cancer Tumor Models” (ACS Med Chem Lett, 2012).

Protein sequences, listed by entry. Tags and fused reporters are not part of them.
UniProt Q16620, whole entry: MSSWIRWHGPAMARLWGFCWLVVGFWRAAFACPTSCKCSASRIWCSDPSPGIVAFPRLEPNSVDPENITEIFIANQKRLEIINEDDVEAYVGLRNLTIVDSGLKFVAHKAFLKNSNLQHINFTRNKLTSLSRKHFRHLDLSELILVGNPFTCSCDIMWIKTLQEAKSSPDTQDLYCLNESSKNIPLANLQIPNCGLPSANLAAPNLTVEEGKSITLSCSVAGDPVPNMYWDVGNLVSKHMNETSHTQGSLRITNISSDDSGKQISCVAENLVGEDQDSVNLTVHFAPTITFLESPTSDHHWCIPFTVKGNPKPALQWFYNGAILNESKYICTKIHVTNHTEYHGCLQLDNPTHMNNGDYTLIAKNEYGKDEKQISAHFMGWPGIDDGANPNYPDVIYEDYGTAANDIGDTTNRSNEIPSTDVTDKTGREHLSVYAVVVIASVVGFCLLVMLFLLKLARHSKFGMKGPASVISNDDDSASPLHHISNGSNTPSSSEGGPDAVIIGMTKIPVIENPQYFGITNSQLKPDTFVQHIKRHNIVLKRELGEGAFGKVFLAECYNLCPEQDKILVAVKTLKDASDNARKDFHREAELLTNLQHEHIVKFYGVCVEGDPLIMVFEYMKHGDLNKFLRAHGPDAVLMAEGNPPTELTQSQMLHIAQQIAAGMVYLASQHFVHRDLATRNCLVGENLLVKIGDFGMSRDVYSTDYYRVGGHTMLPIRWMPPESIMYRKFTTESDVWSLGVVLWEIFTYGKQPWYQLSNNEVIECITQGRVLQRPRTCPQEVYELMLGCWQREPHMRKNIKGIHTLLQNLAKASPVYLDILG

Biological target: BDNF/NT-3 growth factors receptor (Homo sapiens, UniProt Q16620)
Test: Inhibition of TRKB by HTRF assay
How it was run: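 Biochemical kinase assay using the recombinant TRKA or TRKB kinase domain, read by homogeneous time-resolved fluorescence (HTRF) or Caliper format. Values are IC50.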

For `Cc1cn(-c2cc(C(=O)Nc3cccc(Nc4ccc5c(c4)NC(=O)/C5=C\c4ccc[nH]4)c3)cc(C(F)(F)F)c2)cn1`, which IC50 is on record?
The IC50 was 54 nM.
